Like-named read-outs stand apart in the source and are kept apart here.
Tests used:
[1] = target: T1, DRB1*0404 (Homo sapiens, UniProt P01903+P01911, A100R/A169T/F76Y/I96L/K127E/L162R/M171V/N62H/P40V/Q125Y/R42H/S133A/S149N/S66Y/V209L/W38E); assay: Class II peptide-binding assay DRB1*0404 (DR4w14)
T1 construct: Epstein-Barr virus (EBV) transformed homozygous cell lines were used as sources of human HLA Class II molecules; endogenous in cells; host or cells: BIN40 (EBV-transformed homozygous B cell line)

The chains behind the UniProt entries cited, without tags or fusion partners. Residues count along the entry.
UniProt Q30154, 30-266: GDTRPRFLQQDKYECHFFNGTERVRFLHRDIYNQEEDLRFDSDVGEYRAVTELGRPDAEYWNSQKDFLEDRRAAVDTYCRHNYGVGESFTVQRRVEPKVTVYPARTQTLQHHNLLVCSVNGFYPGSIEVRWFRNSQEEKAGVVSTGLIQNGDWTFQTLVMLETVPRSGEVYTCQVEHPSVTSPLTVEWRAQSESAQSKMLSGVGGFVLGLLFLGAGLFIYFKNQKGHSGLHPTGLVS

[2] = target: T2, DRB1*1101 (Homo sapiens, UniProt P01903+P01911, A100R/A169T/A87E/I96F/K41T/L162R/M171V/P40S/Q125H/Q178H/Q39Y/Q99D/R42S/S66Y/T262R/V115G/W38E); type: binding
T2 construct: Epstein-Barr virus (EBV) transformed homozygous cell lines were used as sources of human HLA Class II molecules; endogenous in cells; host or cells: SWEIG (EBV-transformed homozygous B cell line)

[3] = target: T3, DRB1*0405 (Homo sapiens, UniProt P01903+P01911, A100R/A169T/D86S/F76Y/I96L/K127E/L162R/M171V/N62H/P40V/Q125Y/R42H/S133A/S149N/S66Y/V115G/V209L/W38E); assay: Class II peptide-binding assay DRB1*0405 (DR4w15)
T3 construct: Epstein-Barr virus (EBV) transformed homozygous cell lines were used as sources of human HLA Class II molecules; endogenous in cells; host or cells: KT3 (EBV-transformed homozygous B cell line)

[4] = target: T4, DRB1*0101 (Homo sapiens, UniProt P01903+P01911, A100R/D57E/F55L/F60I/F76Y/I96L/L162R/M171V/P40L/Q125E/R42F/V115G/Y59C); assay: Class II peptide-binding assay DRB1*0101 (DR1)
T4 construct: Epstein-Barr virus (EBV) transformed homozygous cell lines were used as sources of human HLA Class II molecules; endogenous in cells; host or cells: LG2 (EBV-transformed homozygous B cell line)

[5] = target: T5, DRB1*1302 (Homo sapiens, UniProt P01903+P01911, A100E/A169T/K41T/L162R/M171V/P40S/Q125H/Q178H/Q39Y/Q99D/R42S/S66N/T262R/V115G/W38E/Y61H); assay: Class II peptide-binding assay DRB1*1302 (DR6w19)
T5 construct: Epstein-Barr virus (EBV) transformed homozygous cell lines were used as sources of human HLA Class II molecules; endogenous in cells; host or cells: HO301 / H0301 (EBV-transformed homozygous B cell line)

[6] = target: T6, DRB1*0802 (Homo sapiens, UniProt P01903+P01911, A100R/A103L/A169T/F76Y/H45Y/I96F/K41T/L162R/M171V/P40S/Q125H/Q178H/Q39Y/Q99D/R218S/R42G/S66Y/V115G/W38E); assay: Class II peptide-binding assay DRB1*0802 (DR8w2)
T6 construct: Epstein-Barr virus (EBV) transformed homozygous cell lines were used as sources of human HLA Class II molecules; endogenous in cells; host or cells: OLL (EBV-transformed homozygous B cell line)

[7] = target: T7, DRB1*0401 (Homo sapiens, UniProt P01903+P01911, A100K/A169T/F76Y/I96L/K127E/L162R/M171V/N62H/P40V/Q125Y/R42H/S133A/S149N/S66Y/V115G/V209L/W38E); assay: Class II peptide-binding assay DRB1*0401 (DR4w4)
T7 construct: Epstein-Barr virus (EBV) transformed homozygous cell lines were used as sources of human HLA Class II molecules; endogenous in cells; host or cells: PREISS (EBV-transformed homozygous B cell line)

[8] = target: DRB1*0901 (Homo sapiens, UniProt P01903+P01911, A100R/A103E/D57H/D86V/F55Y/F60I/F76Y/I96F/K127E/L162R/M171V/P40D/Q125H/Q99R/R33Q/R42F/S133A/S66N/T210M/V115G/W38K/Y107V/Y59G/Y89S); assay: Class II peptide-binding assay DRB1*0901 (DR9)
[9] = target: T8, DRB5*0101 (Homo sapiens, UniProt P01903+Q30154); assay: Class II peptide-binding assay DRB5*0101 (DR2w2a); conditions: IFNb 15-mer peptides, Table 5D
T8 construct: Epstein-Barr virus (EBV) transformed homozygous cell lines were used as sources of human HLA Class II molecules; endogenous in cells; host or cells: GM3107 (EBV-transformed homozygous B cell line)

[10] = target: T9, DRB1*0301 (Homo sapiens, UniProt P01903+P01911, A100K/A102G/A103R/A169T/F55Y/I96L/K41T/L162R/M171V/P40S/Q125H/Q178H/Q39Y/R42S/S66N/T106N/T262R/W38E/Y61H); assay: Class II peptide-binding assay DRB1*0301 (DR3)
T9 construct: Epstein-Barr virus (EBV) transformed homozygous cell lines were used as sources of human HLA Class II molecules; endogenous in cells; host or cells: MAT (EBV-transformed homozygous B cell line)

[11] = target: T10, DRB1*1501 (Homo sapiens, UniProt P01903+P01911); assay: Class II peptide-binding assay DRB1*1501 (DR2w2b)
T10 construct: expressed in transfected cells; host or cells: transfected fibroblasts L466.1

[12] = target: T11, DRB1*0701 (Homo sapiens, UniProt P01903+P01911, A100R/A102G/A103Q/D57E/D86V/E43K/F76Y/K127E/L162R/M171V/P40G/Q125H/Q99D/R33Q/R42Y/R54Q/S133A/S66F/T210M/V115G/Y107V/Y59L/Y89S); assay: Class II peptide-binding assay DRB1*0701 (DR7); conditions: IFNb 15-mer peptides, Table 5D
T11 construct: Epstein-Barr virus (EBV) transformed homozygous cell lines were used as sources of human HLA Class II molecules; endogenous in cells; host or cells: PITOUT (EBV-transformed homozygous B cell line)

[13] = inhibition of radiolabeled probe binding, — read as no appreciable binding

## CC(C)C[C@H](NC(=O)[C@H](C)NC(=O)[C@H](CCCNC(=N)N)NC(=O)[C@H](CC(C)C)NC(=O)[C@H](CC(C)C)NC(=O)[C@@H](NC(=O)[C@@H](NC(=O)[C@H](CC(C)C)NC(=O)[C@H](CO)NC(=O)[C@H](CCCNC(=N)N)NC(=O)[C@H](CC(N)=O)NC(=O)CN)[C@@H](C)O)[C@@H](C)O)C(=O)NCC(=O)N[C@@H](C)C(=O)N[C@@H](CCC(N)=O)C(=O)O
[1]
  IC50: 0.048 µM
[2]
  IC50: 0.029 µM
[3]
  IC50: 3.71 µM
[4]
  IC50: 0.025 µM
[5]
  IC50: 5.25 µM
[6]
  IC50: 0.025 µM
[7]
  IC50: 0.215 µM
[8]
  IC50: 0.326 µM

## CC[C@H](C)[C@H](NC(=O)[C@H](CC(=O)O)NC(=O)[C@H](Cc1ccccc1)NC(=O)[C@H](CC(N)=O)NC(=O)[C@H](CCCNC(=N)N)NC(=O)[C@H](CCCNC(=N)N)NC(=O)[C@H](CC(=O)O)NC(=O)[C@H](CCCCN)NC(=O)[C@H](CC(C)C)NC(=O)[C@H](CS)NC(=O)[C@H](Cc1ccc(O)cc1)NC(=O)[C@H](CCC(=O)O)NC(=O)[C@H](CC(C)C)NC(=O)[C@H](CCCNC(=N)N)NC(=O)CN)C(=O)O
[9]
  IC50: 5.46 µM

## CSCC[C@H](NC(=O)[C@H](CC(=O)O)NC(=O)[C@H](CCCCN)NC(=O)[C@H](CCCNC(=N)N)NC(=O)[C@H](Cc1ccccc1)NC(=O)[C@H](CS)NC(=O)[C@H](Cc1ccc(O)cc1)NC(=O)[C@H](CC(C)C)NC(=O)[C@@H](N)CC(C)C)C(=O)N[C@@H](CC(=O)O)C(=O)N[C@@H](CCCCN)C(=O)N[C@H](C(=O)N[C@@H](CCC(=O)O)C(=O)N[C@H](C(=O)N[C@@H](Cc1ccccc1)C(=O)O)[C@@H](C)O)C(C)C
[1]; [13]
  IC50: 12.7 µM
[10]; [13]
  IC50: 7.58 µM
[2]; [13]
  IC50: 4.51 µM
[4]; [13]
  IC50: 9.44 µM
[5]; [13]
  IC50: 9.83 µM
[6]; [13]
  IC50: 3.9 µM
[11]; [13]
  IC50: 2740 nM
[7]; [13]
  IC50: 1.56 µM

## CC(C)C[C@H](NC(=O)[C@H](CCCCN)NC(=O)[C@H](CCC(=O)O)NC(=O)[C@H](CCC(=O)O)NC(=O)[C@H](CC(C)C)NC(=O)[C@@H](NC(=O)[C@@H](NC(=O)[C@H](CCCCN)NC(=O)[C@H](CC(C)C)NC(=O)[C@H](Cc1c[nH]cn1)NC(=O)[C@@H](N)CC(N)=O)[C@@H](C)O)C(C)C)C(=O)N[C@@H](CCC(=O)O)C(=O)N[C@@H](CCCCN)C(=O)N[C@@H](CCC(=O)O)C(=O)N[C@@H](CC(=O)O)C(=O)O [NHLKTVLEEKLEKED]
[10]; IFNb 15-mer peptides, Table 5D
  IC50: 3.87 µM
[2]; IFNb 15-mer peptides, Table 5D
  IC50: 19.3 µM
[3]; IFNb 15-mer peptides, Table 5D
  IC50: 5.5 µM
[4]; IFNb 15-mer peptides, Table 5D
  IC50: 6.1 µM
[12]
  IC50: 6.4 µM
[11]; IFNb 15-mer peptides, Table 5D
  IC50: 7340 nM

From patent US20070184519A1, “Peptides, polypeptides, and proteins of reduced immunogenicity and methods for their production” (priority 2003, published 2007)
